Experiments:
Aromatase [1] = target: T1, Aromatase (Homo sapiens, UniProt P11511); test: In vitro competitive inhibitory activity was measured on Cytochrome P450 19A1 of human placental microsomes
Aromatase [2] = target: T1, Aromatase; test: The binding affinity was determined on Cytochrome P450 19A1 by analysis of Dixon plot

Chains of the proteins cited; added tags and fusions are not shown. Lines headed by an entry give the natural chain unless they say otherwise; changes in a name come on top.
UniProt P11511: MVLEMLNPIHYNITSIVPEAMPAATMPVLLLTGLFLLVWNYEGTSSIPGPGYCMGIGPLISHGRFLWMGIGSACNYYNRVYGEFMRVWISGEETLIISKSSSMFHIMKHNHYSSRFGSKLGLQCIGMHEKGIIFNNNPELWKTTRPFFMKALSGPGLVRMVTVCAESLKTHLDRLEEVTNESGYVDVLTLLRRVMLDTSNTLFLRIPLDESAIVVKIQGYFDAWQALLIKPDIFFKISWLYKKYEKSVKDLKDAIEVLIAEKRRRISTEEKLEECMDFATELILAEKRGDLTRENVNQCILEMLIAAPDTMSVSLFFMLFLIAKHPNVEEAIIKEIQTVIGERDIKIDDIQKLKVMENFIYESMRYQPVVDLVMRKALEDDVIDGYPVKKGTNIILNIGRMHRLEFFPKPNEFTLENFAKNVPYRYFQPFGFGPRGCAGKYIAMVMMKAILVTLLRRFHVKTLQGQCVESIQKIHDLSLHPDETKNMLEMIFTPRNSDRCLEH

C[C@]12CCCC=C1CC[C@@H]1[C@@H]2CC[C@]2(C)C(=O)CC[C@@H]12
IC50 (Aromatase [1]): 110 nM
Ki (Aromatase [2]): 13 nM
